Data set [1] deals with L3161C lung tumors. Nature of the data set: 18FBnTP PET of transthoracically implanted L3161C tumors in syngeneic mice. The format is in vivo, mouse. As for the experimental part: (§1) Following resection, the tumor was minced and incubated in collagenase/dispase (Cat. #10269638001, Sigma) for 3 hr. Cells were filtered using a 70 μm strainer, centrifuged, resuspended in DMEM with 5% FBS and plated in a 6 cm dish. The following day media was changed and cells that attached were cultured. […] Two weeks after injections, mice were imaged by CT. Mice with similar sized tumors were used for ^18FBnTP imaging. For treatment studies, syngeneic mice were imaged with ^18FBnTP, and split into two groups (three groups for FIG. 3e) based on tumor maximum %ID/g, such that maximum %ID/g of tumors in both groups would be similar. Treatment was then initiated for the specified time. Mice were treated with a single dose of 0.25 mg/kg Oligomycin or 0.5 mg/kg Rotenone; both drugs were delivered by i.p. injection. For other studies mice were treated with 125 mg/kg/day phenformin or 500 mg/kg/day metformin for 5 days; both drugs were delivered by oral gavage in the morning. Following imaging, mice were euthanized and tissue was harvested. For some experiments, lungs were fixed with 10% NBF overnight; for other experiments lung tumor nodules were rapidly dissected, snap frozen in liquid nitrogen and stored in −80° C. freezer.
(§2) In order to reduce variability between mice imaged with ^18FBnTP, maximum percent injected dose per gram (%ID/g) for each tumor was normalized to maximum %ID/g of heart as indicated in the figures. For waterfall plots in FIG. 2m and FIGS. 8e-8f, we calculated % change in the uptake of the ^18FBnTP probe post-treatment relative to pre-treatment using maximum %ID/g of the tumor that was normalized to maximum %ID/g of the heart for each mouse.

In data set [2] the test system is L3161C lung tumors. Nature of the data set: CC3 and Ki67 histology of L3161C tumors. It counts as in vivo, mouse. The following applies: 5 days treatment. As for the experimental part:
as §1, with “For some experiments, lungs were fixed with 10% NBF overnight; for other experiments lung tumor nodules were rapidly dissected, snap frozen in liquid nitrogen and stored in −80° C. freezer.” left out
After the fixation step in 10% neutral buffered formalin overnight, lungs were transferred to 70% ethanol and further processing and embedding was done by the TPCL at UCLA. […] Digital slides were analyzed with Definiens and QuPath software.

The subject of data set [3] is L3161C cells. Description: Mitochondrial membrane potential (ΔΨ) by TMRE flow cytometry, L3161C. The format is cell-based, mouse. As for the experimental part: Experiments were conducted by analyzing TMRE fluorescence using flow cytometry. […] Cells were washed twice in phenol red free DMEM and cellular fluorescence was acquired with a BD LSRII analyzer at UCLA Flow Cytometry Core. Data was analyzed with Flowing Software.
On the technique in general: In flow cytometry, cells or beads pass a laser one at a time.

Data set [4] has as its system L3161C cells. Nature of the data set: In vitro 18FBnTP uptake assay, L3161C. It counts as cell-based, mouse. The following applies: 8 μM oligomycin, 3 hr.
For data set [5], the system named is L3161C cells. Nature of the data set: Viability of L3161C cells after acute treatment. Particulars: oligomycin +/− FCCP, 3 hr.
The subject of data set [6] is L3161C cells. Nature of the data set: Respirometry (Seahorse OCR), L3161C. It counts as cell-based, mouse. Particulars: 1 mM, 45 min. As for the experimental part: (§3) Experiments were conducted on a Seahorse XF96 Extracellular Flux Analyzer (Agilent Technologies) in order to measure oxygen consumption rate (OCR) and extracellular acidification rate (ECAR). […] On the day of the experiment, assay medium (Seahorse XF Base Medium supplemented with 2 mM L-glutamine, 1mM Pyruvate and 10 mM glucose) was freshly prepared. The cells were washed twice with assay medium and brought to a final volume of 175 μL per well. The XF96 plate was placed in a 37° C. incubator without CO2 for 30 minutes prior to loading the plate into the instrument. Injection of compounds during the assay included: the mitochondrial ATP Synthase inhibitor oligomycin (final concentration of 2 μM); the chemical uncoupler, FCCP (final concentration of 1 μM); and the Complex I inhibitors rotenone (final concentrations 2 μM) and phenformin (final concentration 1 mM) and Complex III inhibitor antimycin A (final concentrations of 2 μM). […] Activity of complex I was measured in permeabilized cells using XF PMP assay where complex I dependent OCR was measured by determining OCR in the presence of pyruvate and malate (as substrates for complex I) before and after addition of rotenone (complex I inhibitor).

Another data set relates to L3161C-ND1 tumors. Nature of the data set: 18FBnTP PET of L3161C-ND1 and L3161C-vector tumors. It counts as in vivo, mouse. Particulars: 125 mg/kg/day, 5 days. The method, then: as §1, with “For other studies mice were treated with 125 mg/kg/day phenformin or 500 mg/kg/day metformin for 5 days; both drugs were delivered by oral gavage in the morning. Following imaging, mice were euthanized and tissue was harvested. For some experiments, lungs were fixed with 10% NBF overnight; for other experiments lung tumor nodules were rapidly dissected, snap frozen in liquid nitrogen and stored in −80° C. freezer.” left out
as §2

A further data set has as its system L3161C-ND1 cells. Nature of the data set: Basal OCR in L3161C-ND1 versus L3161C-pBabe cells. The following applies: phenformin 24 hr. The format is cell-based, mouse. As for the experimental part: This experiment was repeated once. […] Experiments in e and f were preformed once.
as §3

In the case of `CN(C)C(=N)N=C(N)N` [metformin], the “inhibition of 18FBnTP uptake compared with phenformin” value in the data set with L3161C lung tumors [1] (500 mg/kg metformin vs 125 mg/kg phenformin, 5 days) is “slightly less inhibition”. For the same compound, in the data set with L3161C lung tumors [1] (500 mg/kg/day oral gavage, 5 days, vs vehicle), the “18FBnTP uptake in lung tumors” value is “significantly reduced”. For the same compound, in the data set on L3161C lung tumors [2], the “apoptosis, cell death and tumor growth by CC3 and Ki67” value was “neither metformin nor phenformin induced apoptosis, cell death or significantly altered tumor growth”.

With `CC[C@H]1/C=C/C=C/C[C@@H](C)[C@H](O)[C@@](C)(O)C(=O)[C@@H](C)[C@H](O)[C@@H](C)C(=O)[C@@H](C)[C@H](O)[C@@H](C)/C=C/C(=O)O[C@@H]2[C@H](C)[C@H](CC1)O[C@]1(CC[C@H](C)[C@H](C[C@@H](C)O)O1)[C@H]2C` [oligomycin], in the data set on L3161C cells [3] (8 μM oligomycin, 3 hr), the TMRE signal entry is reported as “significant increase”. In the data set with L3161C cells [4], the “18FBnTP uptake (gamma counter)” value is given as “significant increase”. Further, in the data set with L3161C cells [5], the cell viability entry is reported as “did not affect cell viability”.

On to `[H]/N=C(/N)N/C(=N/[H])NCCc1ccccc1` [phenformin], for which the “ΔΨ measured by TMRE staining” value in the data set with L3161C cells [3] (short-term phenformin 3 hr) was “significantly reduced ΔΨ in a dose dependent manner”. The “cellular OXPHOS (OCR) by respirometry” value with L3161C cells [6] is on record as “significant reduction of cellular OXPHOS”. In addition, in the data set with L3161C lung tumors [2], the “apoptosis, cell death and tumor growth by CC3 and Ki67” value was “neither metformin nor phenformin induced apoptosis, cell death or significantly altered tumor growth”. Also, in the data set on L3161C-ND1 tumors, the “18FBnTP uptake in ND1 expressing L3161C tumors vs vector tumors” value was “no loss”. For the same compound, the “OXPHOS (basal OCR) in L3161C-ND1 cells vs vector alone” value in the data set on L3161C-ND1 cells is recorded as “maintained higher OXPHOS”.

For the compound `C=C(C)[C@H]1Cc2c(ccc3c2O[C@@H]2COc4cc(OC)c(OC)cc4[C@@H]2C3=O)O1` [rotenone], in the data set on L3161C lung tumors [1] (single i.p. dose (0.25 mg/kg oligomycin; 0.5 mg/kg rotenone), imaged 3-4 hr after), the “18FBnTP uptake in lung tumors after acute treatment” value is recorded as “significantly reduced”.

Values taken from patent US20220347323A1, “Positron Emission Tomography Guided Delivery of Mitochondral Complex I Inhibitors” (priority 2019, published 2022).
